Test results as given in patent publication US20050187188A1, “Methods for the treatment of a traumatic central nervous system injury” (Emory University, priority 2000, published 2005).

Assays:
Assay type in all cases: in vivo, rat
[1] = tested on: rats with bilateral frontal cortical contusions; assay: Morris water maze after MFC contusion, Example 2; conditions: 4 mg/kg; logarithmic regression
Protocol: Contusions to the MFC were carried out as described in Example 1.
Adult male rats were given 5 injections of either vehicle (cyclodextrin), progesterone, allopregnanolone, or epipregnanolone (all at 4 mg/kg). These injections started at one hour post-injury with an intraperitoneal injection, and then were repeated at 6, 24, 48, 72, 96, and 120 hours post-injury with subcutaneous injections.
The Morris Water Maize (MWM) consisted of a circular tank with a diameter of 133 cm filled with opaque water (20±1° C.; non-toxic Artista™ nontoxic white tempura paint) to a depth of 64 cm (23 cm from top of tank). A platform (11 cm×11 cm) was submerged to a depth of 2 cm and placed approximately 28 cm from the wall of the pool in the center of the northeast quadrant. The position of the platform will remain constant throughout the experiment. MWM testing began seven days after surgery. Each animal was tested for a total of 10 days (2 trials per day) in two 5-day blocks. At the start of each trial, the experimenter placed a rat into the pool at one of four starting positions, and at the same time, activate the computer-interfaced camera tracking system. […] The performance of each rat was measured in terms of latency to platform, length of path to platform, and swim strategy, i.e., percent of total time spent in the outer versus inner annuli.

TNFα = TNFα mRNA expression in brain tissue after contusion, real-time quantitative PCR
Protocol: Neurosteroid injections were given at 1 hr and 6 hrs after the contusions, and continued once a day for up to 5 consecutive days post-injury. At 3 hrs, 8 hrs, 12 hrs, and 6 days post-injury, the level of TNF mRNA expression was determined. sham-vehicle (SV); sham-progesterone (SP); sham-allopregnanolone (SA); lesion-vehicle (LV); Lesion-progesterone (LP); lesion-allopregnanolone. *=P<0.05
(§1) Adult male SD rates received either bilateral prefrontal cortical contusions or sham surgeries. The neurosteroid injections were given at 1 hr and 6 hr after the contusions and continued once a day for up to 5 consecutive days post-injury. At 3 hr, 8 hr, 12 hr and 6 days post-injury, the rats were killed and their brains were processed for mRNA extraction. Expression of mRNA for IL-1β and TNFα were assessed using real-time quantitative PCR.

IL-1β = IL-1β mRNA expression in brain tissue after contusion, real-time quantitative PCR
Protocol: Neurosteroid injections were given at 1 hr and 6 hrs after the contusions, and continued once a day for up to 5 consecutive days post-injury. At 3 hrs, 8 hrs, 12 hrs and 6 days post-injury, the level of IL-1 mRNA expression was determined. sham-vehicle (SV); sham-progesterone (SP); sham-allopregnanolone (SA); lesion-vehicle (LV); Lesion-progesterone (LP); lesion-allopregnanolone. *=P<0.05
as §1

Compound: CC(=O)[C@H]1CC[C@H]2[C@@H]3CC[C@H]4C[C@H](O)CC[C@]4(C)[C@H]3CC[C@]12C [allopregnanolone, allopregnan-3α, or 3β-ol-20-one]
- slope of learning curve (rate of learning) relative to injured rats given vehicle [1]: almost twice
- TNFα mRNA expression (TNFα; 3 hours and 6 days post-injury): reduced the expression of both IL-1β and TNFα
- TNFα mRNA expression (TNFα; 12 hours post-injury): enhanced
- IL-1β mRNA expression (IL-1β; 3 hours and 6 days post-injury): reduced the expression of both IL-1β and TNFα
- IL-1β mRNA expression (IL-1β; 8 hrs post-injury): enhanced
